Laboratory results as given in PubChem BioAssay AID540253 (National Center for Advancing Translational Sciences (NCATS), 2011).
Only a part is listed here, and it is no random draw. Records with an inconclusive call do not appear. Activity calls are given as the source filed them. Calls follow the shape of the full dose curve.
Also: % of control where 0% means no effect; nearly all actives have a fitted effect of over 45% in size.

Each compound was assayed against Snurportin-1 (Homo sapiens) + GTP-binding nuclear protein Ran (Homo sapiens) + Importin subunit beta-1 (Homo sapiens) (UniProt O95149+P62826+Q14974) (assay: qHTS Assay for Inhibitors of RanGTP induced Rango (Ran-regulated importin-beta cargo) - Importin beta complex dissociation). Conditions: Biochemical FRET Rango-importin beta; at 46.1 µM (top of the series).
For `CCC(=O)N(c1ccccc1)C1(COC)CCN(CCc2cccs2)CC1`, the activity change, negative = inhibition was inactive: 0.239%. For `CCC(=O)N(c1ccccc1)C1(COC)CCN(CCn2nnn(CC)c2=O)CC1`, the activity change, negative = inhibition was inactive: -9.11%.
